Source: patent publication US10098888B2, “Substituted benzene compounds” (Epizyme, Inc., priority 2012, dated 2018)

What was measured:
[1] = system: WSU-DLCL2 cells; assay: Cell Proliferation Analysis (WSU-DLCL2, Cell Titer Glo); assay type: cell-based; conditions: Homo sapiens, WSUDLCL2, 144 h, 6 days
[2] = system: H3K27me3 in WSU-DLCL2 cells; assay: WSU-DLCL2 Methylation Assay (H3K27me3 ELISA); assay type: cell-based; conditions: Homo sapiens, WSUDLCL2, 96 hours incubation

IC50 [2]: 58 to 150 nM
Compound: CCN(c1cc(C#CC2CCN(C)CC2)cc(C(=O)NCc2c(C)cc(C)[nH]c2=O)c1C)C1CCOCC1 [Compound 105, N-((4,6-Dimethyl-2-oxo-1,2-dihydropyridin-3-yl)methyl)-3-(ethyl(tetrahydro-2H-pyran-4-yl)amino)-2-methyl-5-((1-methylpiperidin-4-yl)ethynyl)benzamide]
IC50 [1]: 325 nM
